Literature values in patent publication US20050043319A1, “Molecular target of neurotoxicity” (EXONHIT THERAPEUTICS SA, priority 2001, published 2005).

Tested on: Amyotrophic Lateral Sclerosis (ALS)
Details: ALS patients; cited from earlier work

For `Nc1nc2ccc(OC(F)(F)F)cc2s1` [Riluzole], the extension of survival is listed as “about three”.
